Measured values as given in patent US8933021B2, “Insulin derivative” (Novo Nordisk A/S, priority 2006, dated 2015).

Columns and labels:
human serum albumin = human serum albumin (Homo sapiens, UniProt P02768); experiment: Human serum albumin affinity assay (125I-TyrA14-analogue, HSA immobilised on Minileak particles); format: binding
[1] = Hydrophobicity (hydrophobic index k'rel) relative to human insulin by isocratic RP-HPLC; format: physicochemical
Method: The elution was monitored by following the UV absorption of the eluate at 214 nm. Void time, t0, was found by injecting 0.1 mM sodium nitrate.

[2] = Self-association by size exclusion chromatography (SEC), Kav; format: physicochemical
Method: The ability of the insulin derivatives of the invention to self-associate into large, but soluble complexes is analysed using SEC (size exclusion chromatography):
The following equation is used to determine the Kav for the derivative: Kav=(t−t0)/(Vt/(f+td−t0)) Where t is the retention time for a given peak, t0 is the retention time for Blue dextran, Vt is the total column volume (here 2.4 ml), f is the flow (here 0.04 ml/min), and td is the retention time for Blue dextran without the column in the system.

Substance: N^εB29-ω-carboxy-pentadecanoyl-γ-L-aspartylamide desB30 human insulin [Example 6]
- Human serum albumin affinity relative to insulin detemir (human serum albumin; class symbol): ++ (0.5-2: ++)
- Human serum albumin affinity relative to insulin detemir (human serum albumin; relative binding constant, 23° C., detemir=1 in saline buffer): 1.36
- Hydrophobicity relative to human insulin ([1]; LiChrosorb RP18, 40° C., pH 7.3, HI = 1): 1.617
- Hydrophobicity relative to human insulin ([1]; class symbol, HI = 1): ++ (1-10: ++)
- Self-association: Kav ([2]; SEC Superose 6, 37° C., 0.6 mM derivative, 2.1 Zn2+/hexamer, 16 mM phenol, pH 7.8, one value per peak): 0.01
- Self-association: % area of peak ([2]; area of the peak whose Kav is in the cell above): (90%)
- Self-association: Kav ([2]; class symbol): +++ (Kav < 0.1: +++)
